The conditions of the data set: micropost tips 40% G6PD and 60% PEO 200 k, vs uncompressed powder. The protocol:
To perform the activity assay on G6PD, an activity assay kit (Sigma Aldrich) was used which measures the amount of oxidized glucose-6-phosphate. […] Duplicate assays were performed on the dissolved solution.

Turning to glucose-6-phosphate dehydrogenase, the “enzymatic activity after the manufacturing process” value was “maintain their activity”.

These data come from US12357802B2, “Self-actuating articles” (priority 2017, dated 2025).
